Laboratory results from PubChem BioAssay AID624296 (National Center for Advancing Translational Sciences (NCATS), 2012).
Only a part is listed here, and it is no random draw. Some results for these compounds are left out of this collection, so the calls shown say nothing about other tests. Records with an inconclusive call do not appear. The source made the active and inactive calls. Calls come from the whole dose curve; as a rule, active = well fitted activation curve with a large enough effect; inconclusive = small, poorly fitted or top-dose-only effect; inactive = no such curve, though single readings can be large or run the other way.

Assay: A quantitative high throughput screen for small molecules that induce DNA re-replication in MCF 10a normal breast cells. Note: % of control where 0% means no effect; nearly all actives have a fitted effect of over 50% in size.
Details: MCF 10A DNA re-replication, Hoechst nuclear intensity, 48 h; at 46.1 µM (top of the series)

Row | SMILES | activity, positive = re-replication
1 | O=C(OCCN1CCCC1)C(O)(c1ccccc1)c1ccccc1 | inactive: 0.553%
2 | CC(C)Oc1ccc(C(=O)NCC2(N(C)C)CCCCC2)cc1 | inactive: -16.7%
3 | CN(C)c1cccc(C(=O)NCC2(N(C)C)CCCCC2)c1 | inactive: 0.734%
4 | COc1ccc(Br)c(C(=O)NCC2(N3CCCCC3)CCCCC2)c1 | inactive: -2.75%
5 | O=C(OC1CN2CCC1CC2)C(CO)(c1ccccc1)c1ccccc1 (stereo not given) | inactive: 2.37%
6 | COc1ccc(Cl)cc1C(=O)NCC1(N(C)C)CCCCC1 | inactive: -14.1%
7 | COc1cccc(C(=O)NCC2(N3CCCCC3)CCCCC2)c1 | inactive: 0.47%
8 | COc1cc(C(=O)NCC2(N(C)C)CCCCC2)c([N+](=O)[O-])cc1OC | inactive: -3.58%
9 | CN(C)C1(CNC(=O)c2ccc(Br)cc2)CCCCC1 | inactive: 1.51%
10 | COc1ccc(C(=O)NCC2(N(C)C)CCCCC2)cc1 | inactive: -3.96%
11 | O=C(NCC1(N2CCCCC2)CCCCC1)c1cccc(Br)c1 | inactive: 2.37%
12 | Cc1cc(C(=O)NCC2(N3CCCCC3)CCCCC2)ccc1[N+](=O)[O-] | inactive: -3.81%
13 | CCN1CCCC(OC(=O)C2(O)c3ccccc3C=Cc3ccccc32)C1 (stereo not given) | inactive: -2.61%
14 | O=C(NCC1(N2CCCCC2)CCCCC1)c1cc(F)c(F)cc1Cl | inactive: -1.59%
15 | C=CCN1CCN(CCOC(=O)C(O)(c2ccccc2)c2ccccc2)CC1 | inactive: 16.9%
16 | CN1CCCC(OC(=O)C(O)(c2ccccc2)c2ccccc2)C1 (stereo not given) | inactive: 7.44%
17 | CN(C)C1CCCC1OC(=O)C(O)(c1ccccc1)c1ccccc1 (stereo not given) | inactive: 0.482%
18 | CN(C)c1ccc(C(=O)NCC2(N(C)C)CCCCC2)cc1 | inactive: -19.3%
19 | Cc1ccccc1C(=O)NCC1(N2CCCCC2)CCCCC1 | inactive: -0.214%
20 | Cc1ccc(C(=O)NCC2(N3CCCCC3)CCCCC2)cc1 | inactive: 4.66%
21 | COc1cc(SC)ccc1C(=O)NCC1(N(C)C)CCCCC1 | inactive: -7.94%
22 | CCN(CC)CC(C)C(C)OC(=O)C(O)(c1ccccc1)c1ccccc1 (stereo not given) | inactive: 13.1%
23 | CC(C)N1C(=O)CC2(CCN(CCOC(=O)C(O)(c3ccccc3)c3ccccc3)CC2)C1=O | inactive: 10.2%
24 | CN1[C@@H]2CC[C@H]1CC(OC(=O)C(O)(c1ccccc1)c1ccccc1)C2 (stereo not given in full) | inactive: -11.3%
25 | O=C(NCC1(N2CCCCC2)CCCCC1)c1cc([N+](=O)[O-])ccc1Cl | inactive: 0.758%
